Reference: patent US20230064189A1, “1H-PYRAZOLO[3,4-D]PYRIMIDINE COMPOUNDS USEFUL FOR THE TREATMENT OF PLATINUM-RESISTANT CANCER” (IMPERIAL COLLEGE INNOVATIONS LIMITED, priority 2019, published 2023)

Test system: SKOV3 cells
Test: Phenotypic apoptosis assay (caspase 3/7 normalised to MTT) plus/minus cisplatin in SKOV3
Assay type: cell-based
Conditions: inhibitor 6.67 μM + cisplatin 25 μM

COc1ccc(O)c(C(=O)c2ccc(C(=O)N[C@@H]3CCCNC[C@H]3NC(=O)c3ccncc3)cc2)c1F [Roche comp-4, N-{(3R,4R)-4-[4-(2-fluoro-6-hydroxy-3-methoxy-benzoyl)-benzoylamino]-azepan-3-yl}-isonicotinamide, reference compound]
activity in phenotypic in vitro apoptosis platinum re-sensitisation assays: inactive
